# This is a selection; strong and weak results do not stand in their true shares. Activity calls are given as the source filed them.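 How the source made its calls: active means Every replicate reaches about 75%, or at least half do and their mean reaches it too (limit read from the data); inconclusive means At least half of replicates reach the limit but their mean does not; inactive means Under half of replicates reach the limit.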
# Test: inhibitors of cytokine-induced beta cell apoptosis, primary screen, luminescence (AID 435005);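 further: 0% = cytokine-treated negative control wells and 100% = positive control rescue; higher means more ATP so stronger rescue from cytokine killing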
# Conditions: INS-1E cytokine-induced death, ATP luminescence, 48 h; hits give high values; percent of positive-control rescue, neutral wells zero; concentration not given here
row,Compound,protection from apoptosis
1,O=[N+]([O-])c1cc([N+](=O)[O-])c(O)c([N+](=O)[O-])c1.c1ccc(Oc2ccncc2)cc1,inactive: -7.35%
2,CCOC(=O)c1ccc(NP(C)(=O)Oc2ccc(OC)cc2)cc1 (centres undefined),inactive: -3.31%
3,CCOP(C)(=S)SCC(=O)NC(C)C(=O)O (centres undefined),inactive: -2.02%
4,O=C(OC1CN2CCC1CC2)c1cccc([N+](=O)[O-])c1 (centres undefined),inactive: -4.32%
5,CP(=O)(Nc1ccccn1)Oc1ccc(Cl)cc1 (centres undefined),inactive: -1.91%
6,CCC(C)N(CC(C)C)C(=S)SC(NC(C)=O)C(Cl)(Cl)Cl (centres undefined),inactive: 64.1%
7,COP1(=S)c2c(C)nn(CCC#N)c2N=C(c2ccc(F)cc2)N1C (centres undefined),inactive: -0.266%
8,CP(=O)(Nc1ccc(SC(F)(F)F)cc1)Oc1ccc(Cl)cc1 (centres undefined),inactive: -7.47%
9,Cc1cccc(C)c1OP(C)(=O)Nc1ccc(SC(F)(F)F)cc1 (centres undefined),inactive: 33.5%
10,CP(=O)(Oc1ccccc1)OC(c1ccccc1)C(F)(F)F (centres undefined),inactive: -0.923%
11,O=C(COc1ccccc1)OC1CN2CCC1CC2 (centres undefined),inactive: 0.452%
12,CCc1ccc(OP(C)(=O)N2CCN(c3ccc([N+](=O)[O-])cc3)CC2)cc1 (centres undefined),inactive: -13.2%
13,Cc1cc(C)cc(OP(C)(=O)Nc2ccc(SC(F)(F)F)cc2)c1 (centres undefined),inactive: -6.53%
14,O=C(Nc1ccncc1[N+](=O)[O-])c1ccc([N+](=O)[O-])cc1[N+](=O)[O-],inactive: 6.52%
15,CCOC(=O)Nc1cccc([As](=O)(O)O)c1,inactive: 2.68%
16,CP(=O)(Nc1ccccc1Br)Oc1ccccc1 (centres undefined),inactive: 0.146%
17,O=[N+]([O-])c1ccc(Nc2ccc(Oc3ccc([N+](=O)[O-])cc3[N+](=O)[O-])cc2)c([N+](=O)[O-])c1,inactive: 14.1%
18,Cc1cc(SC(NC=O)C(Cl)(Cl)Cl)ncn1 (centres undefined),inactive: -10.4%
19,O=P(Nc1ccccn1)(c1cccc2ccccc12)c1cccc2ccccc12,inactive: 13.3%
20,CCOC(=O)Nc1ccc([As](=O)(O)O)c(O)c1,inactive: -9.3%
21,Cc1cc(SC(NC(=O)c2ccccc2)C(Cl)(Cl)Cl)nc(C(C)C)n1 (centres undefined),inactive: -8.96%
22,COc1ccccc1OP(C)(=O)Nc1ccc(C)cc1 (centres undefined),inactive: -6.6%
23,Cc1ccc(NP(C)(=O)Oc2ccccc2)c(C)c1 (centres undefined),inactive: -0.775%
24,CC(C)c1ccc(OP(=O)(Nc2ccccn2)Oc2ccccc2F)cc1 (centres undefined),inactive: 1.68%

row,Compound,protection from apoptosis
1,CCOC(=O)c1ccc(NP(C)(=O)Oc2ccccc2)cc1 (centres undefined),inactive: -3.33%
2,ClCCSc1nnc(-c2cccnc2)o1,inactive: -3.65%
3,Cc1cc(C)cc(OP(C)(N)=O)c1 (centres undefined),inactive: 2.08%
4,CC(C)NC(=O)NP(=O)(Oc1ccccc1)Oc1ccccc1,inactive: 1.44%
5,COc1ccccc1OP(C)(=O)Nc1cc(Cl)ccc1C (centres undefined),inactive: -3.03%
6,CCN(CC)C(=S)SC(NC=O)C(Cl)(Cl)Cl (centres undefined),inactive: 16.6%
7,COc1ccc(OP(C)(=O)Nc2cccc(F)c2)cc1 (centres undefined),inactive: -1.25%
8,O=[As](O)(c1ccc(O)cc1)c1ccccc1O,inactive: -8.68%
9,C[As](=O)(O)c1cccc(C(=O)O)c1,inactive: -6.3%
10,COc1cc(C(=O)NCC2(N3CCOCC3)CCCCC2)ccc1OCC(C)C,inactive: 1.49%
11,O=[N+]([O-])c1cc([N+](=O)[O-])c(Nc2cccnc2)c([N+](=O)[O-])c1,active: 125%
12,O=[N+]([O-])c1ccc2c(c1)C=Nc1ccccc1O2,inactive: 17.1%
13,Cc1ccc2nc3c(c(C)c2c1)CC(C(Cl)Cl)S3 (centres undefined),inactive: -2.93%
14,Cc1ccc(OP(=O)(Nc2ccc([N+](=O)[O-])cn2)Oc2ccc(C)cc2)cc1,inactive: 6.06%
15,CC(C)(C)c1ccc(OP(C)(=O)Nc2ccc(SC(F)(F)F)cc2)cc1 (centres undefined),inactive: 2.73%
16,Cc1cccc(C)c1OP(C)(N)=O (centres undefined),inactive: -2.64%
17,CC(Cc1ccc(O)cc1)NCC(O)c1cc(O)cc(O)c1 (centres undefined),inactive: -9.52%
18,COc1ccc(N/C(=N/P(=O)(N2CCOCC2)N2CCOCC2)N2CCOCC2)cc1,inactive: -9.91%
19,O=C(OC1CN2CCC1CC2)C12CC3CC(CC(C3)C1)C2 (centres undefined),inactive: 4.37%
20,Cc1cc(=O)[nH]c(N[N+](=O)[O-])n1,inactive: -7.55%
21,CCN(CC)CCCOC(=O)C(O)(c1ccccc1)c1ccccc1,inactive: -2.99%
22,Cc1c2c(nc3ccccc13)SC(C(Cl)Cl)C2 (centres undefined),inactive: -4.58%
23,COc1cc(I)ccc1[As](=O)(O)O,inactive: -4.45%
24,Cc1ccc(C)c(NP(C)(=O)Oc2ccccc2)c1 (centres undefined),inactive: -10.5%

row,Compound,protection from apoptosis
1,CCCOP(=S)(Nc1nc(N)cc(=O)[nH]1)OCCC,inactive: 0.373%
2,Cc1cc(C)cc(OP(C)(=O)Nc2ccccn2)c1 (centres undefined),inactive: -26.1%
3,CP(=O)(Nc1cccc(Br)c1)Oc1ccccc1 (centres undefined),inactive: -6.99%
4,Cc1ccc(NCCc2c([N+](=O)[O-])cc([N+](=O)[O-])cc2[N+](=O)[O-])cc1,inactive: 32.3%
5,Nc1cccc2c([As](=O)(O)O)cccc12,inactive: -5.73%
6,CCOP(=O)(Nc1cccc2ccccc12)OCC,inactive: -3.22%
7,O=[As](O)(O)c1cccnc1,inactive: 0.364%
8,COc1cc(C(=O)NCC2(N3CCOCC3)CCCCC2)cc(Cl)c1OC(C)C,inactive: 4.22%
9,COc1ccccc1OP(C)(=O)Nc1cccc(Br)c1 (centres undefined),inactive: -4.78%
10,CS(=O)(=O)c1ccc(Cl)c(NC(=O)COC(=O)C(O)(c2ccccc2)c2ccccc2)c1,inactive: 3.16%
11,O=C(OC1CN2CCC1CC2)c1ccc(Cl)cc1 (centres undefined),inactive: -3.05%
12,CCOC(=O)c1ccc(NP(C)(=O)Oc2cc(C)cc(C)c2)cc1 (centres undefined),inactive: -2.81%
13,Cc1cccc(OCC(=O)OC2CN3CCC2CC3)c1 (centres undefined),inactive: -0.652%
14,O=[As](O)(c1cccc(O)c1)c1cccc(O)c1,inactive: -4.39%
15,Cc1cc(C)cc(OP(C)(=O)Nc2ccc(C)cc2C)c1 (centres undefined),inactive: -9.02%
16,NC(=O)Nc1ccc([As](=O)(O)O)cc1,inactive: -3.99%
17,O=[N+]([O-])c1ccc2c(c1)nnn2O,inactive: -3.82%
18,CC1=NCCc2c1[nH]c1ccccc21.O=[N+]([O-])c1cc([N+](=O)[O-])c(O)c([N+](=O)[O-])c1,inactive: -0.356%
19,CN(C(=O)Cc1ccc(Cl)c(Cl)c1)[C@H]1CC[C@@]2(CCCO2)C[C@@H]1N1CCCC1,inactive: 1.55%
20,N#CCCN(C(=O)COC(=O)C(O)(c1ccccc1)c1ccccc1)c1ccc(F)cc1,inactive: -1.84%
21,CN(C(=O)Cc1ccccc1)[C@@H]1CC[C@]2(CCCO2)C[C@H]1N1CCCC1,inactive: -2.32%
22,CCOP1(=S)c2c(C)nn(CCC#N)c2N=C(c2ccc(F)cc2)N1C (centres undefined),inactive: 16.4%
23,CS(=O)(=O)c1cc([N+](=O)[O-])c2no[n+]([O-])c2c1,inactive: 6.25%
24,O=C(O)c1cccc(Nc2c([N+](=O)[O-])cc([N+](=O)[O-])cc2[N+](=O)[O-])c1,inactive: 2.1%

row,Compound,protection from apoptosis
1,CCOP1(=S)c2c(C)nn(CCC#N)c2N=C(c2ccccc2F)N1C (centres undefined),inactive: 0.177%
2,O=P(Nc1nccs1)(Oc1ccccc1)Oc1ccccc1,inactive: -12.7%
3,O=P(Nc1nccs1)(c1ccccc1)c1nc2ccccc2s1 (centres undefined),inactive: 14.1%
4,O=C(O)COc1ccc([As](=O)(O)O)cc1[N+](=O)[O-],inactive: -3.26%
5,Nc1ccccc1[As](=O)(O)c1ccccc1,inactive: -3.15%
6,CN1CCCCC1COC(=O)C1(O)c2ccccc2CCc2ccccc21 (centres undefined),inactive: -0.563%
7,COc1ccccc1OP(C)(=O)Nc1c(C)cccc1C (centres undefined),inactive: -7.17%
8,O=P1(Nc2ncccn2)COc2ccccc2OC1,inactive: -1.15%
9,Cc1ccc(OCC(=O)OC2CN3CCC2CC3)cc1 (centres undefined),inactive: 1.28%
10,O=[As](O)(c1cccs1)c1cccs1,inactive: -5.25%
11,NS(=O)(=O)c1cccc(NC(=O)COC(=O)C(O)(c2ccccc2)c2ccccc2)c1,inactive: -0.94%
12,O=P1(Nc2ccc(Br)cn2)COc2ccccc2OC1,inactive: -2.7%
13,CCCOc1ccc(NP(C)(=O)Oc2ccc(Cl)cc2)cc1 (centres undefined),inactive: -2.96%
14,Nc1cccc([As](=O)(O)c2ccccc2)c1,inactive: -4.55%
15,CP(=O)(Nc1ccc(SC(F)(F)F)cc1)Oc1ccccc1 (centres undefined),inactive: 3.56%
16,COc1cc(C2NCCC3(OCCO3)C2(C)C)cc(OC)c1OC.O=[N+]([O-])c1cc([N+](=O)[O-])c(O)c([N+](=O)[O-])c1 (centres undefined),inactive: 0.572%
17,Cc1nn(-c2ccccc2)c2c1P(=O)(N1CCOCC1)N(C)C(c1ccccc1)=N2 (centres undefined),inactive: 0.0848%
18,Cc1ccc(C(=O)OC2CN3CCC2CC3)cc1 (centres undefined),inactive: -8.32%
19,CC1CCC(C(C)C)C(OP(=O)(Nc2ccccn2)c2ccccc2)C1 (centres undefined),inactive: 12.7%
20,O=C(/C=C/c1ccccc1)OC1CN2CCC1CC2 (centres undefined),inactive: -4.75%
21,CC1=C2N=C(C=C3N=C(C(C)=C4[N-][C@@](C)([C@@H]5N=C1[C@](C)(CCC(=O)NC[C@@H](C)OP(=O)([O-])O[C@H]1[C@@H](O)[C@@H](n6cnc7cc(C)c(C)cc76)O[C@@H]1CO)[C@H]5CC(N)=O)[C@@](C)(CC(N)=O)[C@@H]4CCC(N)=O)[C@@](C)(CC(N)=O)[C@@H]3CCC(N)=O)C(C)(C)[C@@H]2CCC(N)=O.[C-]#N.[Co+3],inactive: 4.91%
22,CN(C)C1(CNC(=O)c2ccc(S(C)(=O)=O)cc2)CCCCC1,inactive: 5.95%

# From PubChem BioAssay AID435005 (Broad Institute, 2010)
